{"source": "patent US20100189807A1", "about": "“Use of an ozone / oxygen mixture as a primary anticancer therapy via intraperitoneal insufflation” (priority 2009, published 2010)", "origin": "cited, not measured here", "system": "auricular VX2 tumors", "details": "perilesional injection; cited from earlier work", "data": [{"substance": "IL-2: IL-2, perilesional injection, literature comparison", "values": [{"measurement": "efficiency of regression of auricular VX2 tumors", "result": 25.0, "unit": "%"}]}]}
